Columns and labels:
Homo sapiens = species on record: Homo sapiens; assay: Selectivity ratio of IC50 for recombinant human JMJD3 to IC50 for UTX (unknown origin)
A-375 = assay: Antiproliferative activity against human A375 cells incubated for 24 hrs by propidium iodide staining based flow cytometric analysis; format: functional, cell-based

For `Oc1ccc(O)c(-c2nc3ccccc3o2)c1`, the Ratio IC50 (Homo sapiens) was 21 and the Activity (A-375) was “Dose-dependent effect”.
